Consider one compound from article PMC4676410 (Journal of medicinal chemistry, 2015).

The test has as its system CD4-dependent HIV-1ADA. Briefly: Infectivity assay against CD4-dependent virus in Cf2Th/CD4-CCR5 cells. Conditions: read-out: IC50 against CD4-dependent virus; HIV-1ADA in Cf2Th/CD4-CCR5 cells.

As usually defined, the IC50 is the point on the concentration scale where inhibition reaches its midpoint. On to `Cc1nc(C(NC(=O)c2ccc(-c3ccc(Cl)cc3)[nH]2)C2CCCCN2)sc1CO` (mixture of isomers) [NBD-11021, 5-(4-Chlorophenyl)-N-((5-(hydroxymethyl)-4-methylthiazol-2-yl)-(piperidin-2-yl)methyl)-1H-pyrrole-2-carboxamide], for which the IC50 is 2400 ± 200 nM.
